Assay results published in ChEMBL document CHEMBL1156441, “Mechanism of inactivation of plasminogen activator inhibitor-1 by a small molecule inhibitor” (J Biol Chem, 2007).

By UniProt entry, the sequences of proteins in these tests, tags left out.
UniProt P05121, whole entry: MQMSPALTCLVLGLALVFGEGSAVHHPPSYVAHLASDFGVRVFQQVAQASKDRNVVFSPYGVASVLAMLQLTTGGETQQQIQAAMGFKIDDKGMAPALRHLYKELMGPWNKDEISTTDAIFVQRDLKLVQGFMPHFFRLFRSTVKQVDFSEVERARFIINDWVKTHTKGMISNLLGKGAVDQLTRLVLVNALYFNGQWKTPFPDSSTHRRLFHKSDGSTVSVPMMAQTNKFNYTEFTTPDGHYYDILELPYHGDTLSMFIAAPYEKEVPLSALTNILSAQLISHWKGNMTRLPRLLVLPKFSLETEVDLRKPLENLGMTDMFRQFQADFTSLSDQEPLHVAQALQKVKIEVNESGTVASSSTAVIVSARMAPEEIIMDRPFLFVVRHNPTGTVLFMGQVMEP

Key:
[1] = target: T1, Plasminogen activator inhibitor 1 (Homo sapiens, UniProt P05121); test: Inhibition of human glycosylated PAI1 using tissue type plasminogen activator substrate by direct chromogenic assay
[2] = target: T1, Plasminogen activator inhibitor 1; test: Binding affinity to human immobilized PAI1 by surface plasmon resonance
[3] = target: T1, Plasminogen activator inhibitor 1; test: Inhibition of human non-glycosylated PAI1 using urokinase type plasminogen activator substrate by direct chromogenic assay
[4] = target: T1, Plasminogen activator inhibitor 1; test: Inhibition of vitronectin binding to human PAI1
[5] = target: T1, Plasminogen activator inhibitor 1; test: Inhibition of human glycosylated PAI1 using urokinase type plasminogen activator substrate by direct chromogenic assay
[6] = target: T1, Plasminogen activator inhibitor 1; test: Inhibition of human non-glycosylated PAI1 using tissue type plasminogen activator substrate by direct chromogenic assay

O=C(O)C(=O)c1cn(Cc2ccccc2)c2ccc(-c3ccc(OC(F)(F)F)cc3)cc12 [TIPLASININ] showed an IC50 [1] of 12.3 µM, a Kd [2] of 15 µM and an IC50 [3] of 9.7 µM. For the same compound, the IC50 [4] was 13 µM, the IC50 [5] was 8.8 µM and the IC50 [6] was 11.4 µM.
